For this assay, the target named is Polycomb protein EED (Homo sapiens, UniProt O75530).

The chains behind the UniProt entries cited, without tags or fusion partners.
UniProt O75530, whole entry: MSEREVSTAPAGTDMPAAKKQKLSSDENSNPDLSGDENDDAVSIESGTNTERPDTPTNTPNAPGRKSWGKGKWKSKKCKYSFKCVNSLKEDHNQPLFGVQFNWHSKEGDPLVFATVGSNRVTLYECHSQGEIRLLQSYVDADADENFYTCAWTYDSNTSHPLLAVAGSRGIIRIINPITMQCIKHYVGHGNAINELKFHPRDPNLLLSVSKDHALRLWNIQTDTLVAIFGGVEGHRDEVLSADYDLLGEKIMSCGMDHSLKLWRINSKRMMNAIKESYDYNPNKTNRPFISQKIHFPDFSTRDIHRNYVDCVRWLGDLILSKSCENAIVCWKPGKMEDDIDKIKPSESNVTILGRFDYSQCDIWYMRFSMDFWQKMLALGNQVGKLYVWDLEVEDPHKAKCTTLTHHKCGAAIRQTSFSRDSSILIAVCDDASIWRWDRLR

Structures are written as SMILES.

Take `c1ccc(-c2cnc(NCc3ccco3)n3ccnc23)cc1`: the midpoint of inhibition, the IC50, lay at 20.5 µM.

In the case of `c1ccc(-c2cnc(NCc3ccco3)n3cncc23)cc1`, the concentration for half-maximal inhibition (IC50) (as a rule, the point on the concentration scale where inhibition reaches its midpoint) stood at 0.26 µM.

The values are drawn from ChEMBL document CHEMBL4007397, “Discovery of First-in-Class, Potent, and Orally Bioavailable Embryonic Ectoderm Development (EED) Inhibitor with Robust Anticancer Efficacy” (J Med Chem, 2017).
